These results are taken from publication PMC11272978, “Exploring the central region of amylin and its analogs aggregation: the influence of metal ions and residue substitutions” (Frontiers in Chemistry, 2024).

Data set [1] is described as follows: Thioflavin-T (ThT) aggregation assay. In kind it is physicochemical. The settings on record: 40 μM peptide, 20 μM ThT, 50 mM phosphate buffer pH 7.4, 25°C. How it is done:
(§1) Preparation of IAPP fragments solutions and thioflavin-T aggregation assays were performed as described earlier ([Alghrably et al., 2020]). In brief, IAPP fragments were dissolved in 50 mM phosphate buffer to concentrations of 1 mM. Stock solutions were diluted to the desired concentrations, and samples were used fresh each time. It is important to mention that due to the observation of turbidity after dissolving hIAPP-F and Pramlintide-M, both peptides were sonicated for 25 min. All of the aggregation reactions were conducted at 25°C with 40 μM IAPP fragments/mutants (final concentration) in 50 mM phosphate buffer (pH 7.4), and 20 μM thioflavin T in a final volume of 200 μL in each of the 96-well flat-bottom black plate (Corning 3915). We tested the aggregation of each IAPP fragment/mutants alone and with the addition of two metal ions Cu(II) and Zn(II). The metal ions were added to the IAPP fragments in 1:1 ratio. The plate was sealed with transparent film (Duck Brand Crystal Clear Tape, Avon, OH). Thioflavin T fluorescence emission at 528/20 nm (excitation at 485/20) was monitored on a Cytation 5 Multi-Mode Microplate. The measurements were collected by top reading each 5 min after a 3 s shake with an extended gain.

A further data set concerns HeLa cells. Kind of data set: CCK-8 cytotoxicity assay. Format: cell-based, human. How it is done: The cytotoxicity of the different peptides (rIAPP-F, hIAPP-F, Pramlintide-F, hIAPP-M, rIAPP-M, Pramlintide-M, and hIAPP) was tested using CCK-8 assay according to the manufacturer’s protocol. Briefly, cervical carcinoma cells (HeLa) were seeded into 96 well plates 8 × 10^3 cells/well in 100 µL DMEM culture medium with 10% FBS and 1% Penicillin-Streptomycin and incubated in a 5% CO2 incubator at 37°C overnight. After that, the cells were incubated with the different peptides prepared in deionized water at concentrations (200, 400, 600, and 800 μg/mL) for 24 h. In addition, the cytotoxicity of hIAPP-F and Pramlintide-M prepared in 0.5 mg/mL Cu(NO3)2 and ZnCl2 solutions at the same concentrations (200, 400, 600, and 800 μg/mL) was also tested. Cells without any treatment were used as a control, and all the conditions were done in triplicates. After 24 h, the media was discarded from the plate, and cells were washed with PBS. Then, 10 µL of CCK-8 and 90 µL of fresh DMEM media were added to each well and incubated for 4 h. The absorbance was measured at OD = […] using a microplate spectrophotometer (BioRad-xMark Microplate Absorbance Spectrophotometer). The ratio of the absorbance at 570/605 was calculated, and the average absorbance value of wells without cells was considered as blank and subtracted from all wells to cancel the background noise. The cells without any treatment were used as a control, and their mean value was considered 100% viable. The other treated cells’ viability was calculated using the formula: Cells viability % = (Corrected Mean Absorbance of treated cells)/(Corrected Mean Absorbance of control) ×100.
On the technique in general: Tetrazolium dyes change colour on reduction, which living cells bring about.

Data set [2] can be described thus: Atomic force microscopy (AFM) of fibrils. In kind it is physicochemical. As to the method: AFM imaging was conducted in a 256-scanning line at a 1 Hz scanning rate by using Bruker’s Nano Dimension Icon (Bruker Nano Inc., Germany). In this procedure, 200–300 μM hIAPP-F and Pramlintide-M were incubated with and without selected metal ions at 25°C for 24 h. All the samples were dissolved in 50 mM phosphate buffer (pH 7.4). The height of peptide aggregates was obtained from its section tool through Nano Scope Analysis 1.5, and the line position with average effects in the images was selected, except peptides alone in fibril form.

Data set [3] can be described thus: 1D 1H NMR signal intensity over time (aggregation). In kind it is physicochemical. The settings on record: 310 K, D2O with 20 mM phosphate buffer pH 7.4, 1.5 mM peptide (100 μM for hIAPP-F and Pramlintide-M), over 44 hours. As to the method: All peptides (except hIAPP-F and Pramlintide-M) were dissolved in 99.8% deuterium oxide containing 20 mM of phosphate buffer (pH 7.4). All samples contained 1.5 mM peptide concentration in 600 μL of sample volume except for hIAPP-F and Pramlintide-M, for which the final concentration was 100 μM (both peptides have a high tendency to aggregate at room temperature). The samples’ pH was manually adjusted to 7.4 with 0.1 M NaOD stock solution in 100% D2O. These samples were used for the ^1H and ^13C resonances assignment based on 2D spectra: ^1H-^13C HSQC ([Bodenhausen and Ruben, 1980]) tuned for the aliphatic region, HSQC-TOCSY ([Koz´min´ski and Koz´min´ski, 1999]), ^1H-^1H TOCSY ([Braunschweiler and Ernst, 1983]) mixing time 20 ms and 80 ms, ^1H-^1H ROESY ([Davis, 1985]) mixing time 300 ms and 500 ms. During the hIAPP-F and Pramlintide-M sample preparation, a temperature of 90°C was used to dissolve the peptides. After that, both samples were sonicated during the cooling down process to obtain a homogeneous solution. Spectra were measured immediately after sample preparation. The samples with the addition of metal ions were prepared with the same method as the samples of high tendency aggregation peptides hIAPP-F and Pramlintide-M. […]

A short description of data set [4]: Turbidity on dissolving the peptide. Format: physicochemical. The settings on record: dissolved in 50 mM phosphate buffer to 1 mM; observation; peptides then sonicated for 25 min. As to the method:
as §1

Setting [5] is: peptide:Zn 1:1, 200 µM, phosphate buffer pH 7.4, 24 h.

As a reminder, the cell viability is a per cent measure of how many cells are alive, often set against a control. Lower therefore signals more harm to the cells.

For the molecule `CC[C@H](C)[C@H](NC(=O)[C@@H]1CCCN1C(=O)CNC(=O)[C@H](Cc1ccccc1)NC(=O)[C@H](CC(N)=O)NC(=O)[C@H](CC(N)=O)NC(=O)[C@@H](N)CO)C(=O)N[C@@H](CC(C)C)C(=O)N[C@@H](CO)C(=O)N[C@@H](CO)C(=O)O` [Pramlintide-M], in data set [1], the “time at which aggregation started (ThT), peptide alone” value turned out to be 7 h and the “time to reach saturation phase (ThT), peptide alone” value was 14 h. In addition, in data set [1] (ex 485/20, em 528/20 nm, read each 5 min), the “ThT fluorescence intensity (aggregation), peptide alone” value is “slight increase in the fluorescence intensity”. In addition, the “ThT fluorescence intensity (aggregation) with Cu(II)” value in data set [1] (Cu(II) (Cu(NO3)2) 1:1) is “inhibited the aggregation”. For the same molecule, in data set [1] (Zn(II) 1:1), the “time at which aggregation started (ThT) with Zn(II)” value came to 12 h and the “time to reach saturation phase (ThT) with Zn(II)” value is listed as 14 h. For the same molecule, in data set [1] (Zn(II) (ZnCl2) 1:1), the “ThT fluorescence intensity (aggregation) with Zn(II)” value is “slight increase in the fluorescence intensity”. Further, the “cell viability at 800 μg/mL” value in the data set on HeLa cells (24 h, 800) was found to be 70%. In addition, in the data set on HeLa cells (HeLa cells, peptide 200-800 μg/mL prepared in 0.5 mg/mL Cu(NO3)2, 24 h, CCK-8, n = 3), the “cell viability, peptide-Cu(II) complex” value is reported as “high cell viability”. Besides, in the data set on HeLa cells (HeLa cells, peptide 200-800 μg/mL prepared in 0.5 mg/mL ZnCl2, 24 h, CCK-8, n = 3), the “cell viability / proliferation, peptide with Zn(II)” value is on record as “high cell proliferation rate”. In data set [2] (200 µM peptide, phosphate buffer pH 7.4, 25°C, 24 h), the “fibril morphology (AFM), peptide alone” value is listed as “helical structure”. Moreover, the “fibril diameter (AFM), peptide alone” value in data set [2] (200 µM peptide, phosphate buffer pH 7.4, 25°C, 24 h, profile analysis) was determined as 6 nm. In addition, in data set [2] (setting [5]), the “fibril diameter (AFM) with Zn(II)” value was determined as 6 nm and the “fibril morphology (AFM) with Zn(II)” value was “Twisted fibrils”. For the same molecule, the “NMR signal intensity over time (signal loss = aggregation), peptide alone” value in data set [3] is “decreased over time”. Further, the turbidity after dissolving entry in data set [4] is “turbidity”.
